Results taken from patent US7563899B2, “(S)-N-methylnaltrexone” (Progenics Pharmaceuticals, Inc., priority 2005, dated 2009).

Protein sequences, listed by entry. Tags and fused reporters are not part of them.
UniProt P35372, whole entry: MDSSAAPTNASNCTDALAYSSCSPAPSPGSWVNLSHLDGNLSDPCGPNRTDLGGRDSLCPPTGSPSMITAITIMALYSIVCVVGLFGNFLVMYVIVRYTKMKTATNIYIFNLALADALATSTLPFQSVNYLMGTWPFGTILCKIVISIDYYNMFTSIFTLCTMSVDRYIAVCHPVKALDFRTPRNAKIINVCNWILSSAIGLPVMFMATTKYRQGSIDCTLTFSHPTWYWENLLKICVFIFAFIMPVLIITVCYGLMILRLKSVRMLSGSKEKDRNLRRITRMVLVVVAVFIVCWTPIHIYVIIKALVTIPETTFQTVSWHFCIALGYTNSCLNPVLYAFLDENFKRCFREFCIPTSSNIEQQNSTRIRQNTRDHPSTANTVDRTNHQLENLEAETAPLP

Target: T1, human μ (mu, MOP) receptor (Homo sapiens, UniProt P35372)
T1 construct: expressed in transfected cells; host or cells: CHO cells
Assay: cAMP assay in CHO cells expressing human mu receptor, antagonist assay
Type: cell-based
Conditions: then forskolin
Procedure: Thus full antagonist effect was equivalent to forskolin without any addition of μ-opioid agonist.
Cells were grown to confluence in 96-well plates. Cells were washed and equilibrated in physiological buffer before analysis. 20 ul of drug, 100 uM IBMX and 10 uM forskolin were added and incubated for 25 minutes at room temperature and then the reaction was stopped with the addition of 0.1 N HCl. Extracted cAMP level was determined via competitive EIA assay utilizing alkaline phosphatase. Additional experimental conditions were as described in Toll L., J Pharmacol Exp Ther. (1995) 273(2): 721-7.

Question: For CTOP [reference compound], which “cAMP antagonist assay value (Table IX.2)” value (log{M} conc −5.0, then 30 μM DAMGO) is on record?
Answer: Its value is 91.

Question: What about the “cAMP antagonist assay value (Table IX.2)” value (log{M} conc −6.0, then 30 μM DAMGO) of the same substance?
Answer: The value was 109.

Question: And the “cAMP antagonist assay value (Table IX.2)” value (log{M} conc −7.0, then 30 μM DAMGO)?
Answer: Its value is 48.

Question: What about the “cAMP antagonist assay value (Table IX.2)” value (log{M} conc −8.0, then 30 μM DAMGO) of the same substance?
Answer: Its value is 1.

Question: And the “cAMP antagonist assay value (Table IX.2)” value (log{M} conc −11.0, then 30 μM DAMGO)?
Answer: The value was −1.
